Measured values from US20260116920A1, “HUMAN TRANSFERRIN RECEPTOR BINDING PEPTIDE” (PEPTIDREAM INC., priority 2021, published 2026).
Where two headings read alike, the source gives them in different places.

Sequences of proteins named here, by UniProt entry; tags and fusion partners are left off. Residues count along the entry.
UniProt P02786, 89-760 limits assumed: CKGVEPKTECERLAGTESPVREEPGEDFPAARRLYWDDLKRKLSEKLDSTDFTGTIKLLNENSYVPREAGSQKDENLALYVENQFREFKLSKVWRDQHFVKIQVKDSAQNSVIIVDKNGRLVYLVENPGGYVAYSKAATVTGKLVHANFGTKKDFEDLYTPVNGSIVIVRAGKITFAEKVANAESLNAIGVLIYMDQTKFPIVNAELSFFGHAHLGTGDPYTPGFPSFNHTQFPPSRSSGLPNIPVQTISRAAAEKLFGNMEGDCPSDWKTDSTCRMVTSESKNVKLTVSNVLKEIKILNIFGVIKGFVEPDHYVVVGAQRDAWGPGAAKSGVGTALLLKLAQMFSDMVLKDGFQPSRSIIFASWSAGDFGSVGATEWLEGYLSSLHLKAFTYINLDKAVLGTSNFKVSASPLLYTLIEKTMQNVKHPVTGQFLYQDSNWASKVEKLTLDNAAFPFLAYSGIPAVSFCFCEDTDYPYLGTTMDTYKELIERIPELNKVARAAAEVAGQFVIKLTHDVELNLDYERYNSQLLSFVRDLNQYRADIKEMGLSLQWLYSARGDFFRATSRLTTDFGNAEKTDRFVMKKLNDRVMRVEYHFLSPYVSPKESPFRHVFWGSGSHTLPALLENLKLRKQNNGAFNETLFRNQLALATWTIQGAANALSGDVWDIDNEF

Target: T1, human transferrin receptor (hTfR) (Homo sapiens, UniProt P02786)
T1 construct: made in house
Assay: Evaluation of molecular interaction between transferrin receptor (hTfR) and peptide using surface plasmon resonance (SPR)
Type: binding
Conditions: KD class of the peptide with linker for hTfR by surface plasmon resonance
Summary of the method: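 Recombinant human TfR dimer (0.5 μM) was captured on a Ni-charged NTA chip and amine-coupled with EDC/NHS, then ethanolamine-capped. Peptides at 5–100 nM in HEPES pH 8.0 buffer with 150 mM NaCl, 0.05% Tween 20, 0.1% BSA and 1.0% DMSO were run by single-cycle kinetics; KD came from least-squares curve fitting.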

Row | SMILES | Kd (read-out: SPR) | Kd (SPR)
1 | CC[C@H](C)[C@@H]1NC(=O)[C@H](Cc2ccc(OCC(=O)O)cc2)NC(=O)[C@H](Cc2ccc(O)cc2)NC(=O)[C@H](CC(N)=O)NC(=O)[C@H](Cc2cn(CC(=O)O)c3ccccc23)NC(=O)[C@H](C(C)C)NC(=O)[C@H](Cc2cccc(Cl)c2)N(C)C(=O)[C@H](C(C)C)NC(=O)[C@H](C)NC(=O)CSC[C@@H](C(=O)NCC(=O)NCC(=O)NCC(=O)NCC(=O)N[C@@H](CO)C(=O)N[C@@H](CO)C(=O)N[C@@H](CCCCNC(=O)C2CCC(CN3C(=O)C=CC3=O)CC2)C(N)=O)NC(=O)[C@H](Cc2ccc(O)cc2)N(C)C(=O)[C@H](Cc2cccc(C(=O)O)c2)NC(=O)[C@H](CCCCN2CCOCC2)NC(=O)[C@H](CCCCN2CCOCC2)NC(=O)[C@H]([C@@H](C)CC)NC1=O (stereo partly shown) [compound 293] |  | 1 to 100 nM
2 | CC[C@H](C)[C@@H]1NC(=O)[C@H](Cc2ccc(OCC(=O)O)cc2)NC(=O)[C@H](Cc2ccc(O)cc2)NC(=O)[C@H](CC(N)=O)NC(=O)[C@H](Cc2cn(CC(=O)O)c3ccccc23)NC(=O)[C@H](C(C)C)NC(=O)[C@H](Cc2cccc(Cl)c2)N(C)C(=O)[C@H](C(C)C)NC(=O)[C@H](C)NC(=O)CSC[C@@H](C(=O)NCC(=O)NCC(=O)NCC(=O)NCC(=O)N[C@@H](CO)C(=O)N[C@@H](CO)C(=O)N[C@@H](CCCCNC(C)=O)C(N)=O)NC(=O)[C@H](Cc2ccc(O)cc2)N(C)C(=O)[C@H](Cc2ccccc2)NC(=O)[C@H](CCCNC(=N)N)NC(=O)[C@H](CCCNC(=N)N)NC(=O)[C@H]([C@@H](C)CC)NC1=O [compound 294] |  | 1 to 100 nM
3 | CC[C@H](C)[C@@H]1NC(=O)[C@H](Cc2ccc(OCC(=O)O)cc2)NC(=O)[C@H](Cc2ccc(O)cc2)NC(=O)[C@H](CC(N)=O)NC(=O)[C@H](Cc2cn(CC(=O)O)c3ccccc23)NC(=O)[C@H](C(C)C)NC(=O)[C@H](Cc2cccc(Cl)c2)N(C)C(=O)[C@H](C(C)C)NC(=O)[C@H](C)NC(=O)CSC[C@@H](C(=O)NCC(=O)N(C)CC(=O)N(C)CC(=O)N(C)CC(=O)N(C)CC(=O)N(C)CC(=O)N[C@@H](CCCCNC(C)=O)C(N)=O)NC(=O)[C@H](Cc2ccc(O)cc2)N(C)C(=O)[C@H](Cc2ccccc2)NC(=O)[C@H](CCCNC(=N)N)NC(=O)[C@H](CCCNC(=N)N)NC(=O)[C@H]([C@@H](C)CC)NC1=O [compound 295] |  | 1 to 100 nM
4 | CC[C@H](C)[C@@H]1NC(=O)[C@H](Cc2ccc(O)cc2)NC(=O)[C@H](Cc2ccc(O)cc2)NC(=O)[C@H](CC(N)=O)NC(=O)[C@H](Cc2c[nH]c3ccccc23)NC(=O)[C@H](C(C)C)NC(=O)[C@H](Cc2ccccc2)N(C)C(=O)[C@H](C(C)C)NC(=O)[C@H](C)NC(=O)CSC[C@@H](C(=O)NCC(=O)N[C@H](C(=O)N[C@@H](CCCNC(N)=O)C(=O)N[C@@H](CCCCN=[N+]=[N-])C(N)=O)C(C)C)NC(=O)[C@H](Cc2ccc(O)cc2)N(C)C(=O)[C@H](Cc2ccc(O)cc2)NC(=O)[C@H](CCCNC(=N)N)NC(=O)[C@H](CCCNC(=N)N)NC(=O)[C@H]([C@@H](C)CC)NC1=O [compound 296] | 1 to 100 nM | 
5 | CC[C@H](C)[C@@H]1NC(=O)[C@H](Cc2ccc(O)cc2)NC(=O)[C@H](Cc2ccc(O)cc2)NC(=O)[C@H](CC(N)=O)NC(=O)[C@H](Cc2c[nH]c3ccccc23)NC(=O)[C@H](C(C)C)NC(=O)[C@H](Cc2ccccc2)N(C)C(=O)[C@H](C(C)C)NC(=O)[C@H](C)NC(=O)CSC[C@@H](C(=O)NCC(=O)N[C@@H](CCC(=O)O)C(=O)N[C@H](C(=O)N[C@@H](CCCNC(N)=O)C(=O)N[C@@H](CCCCN=[N+]=[N-])C(N)=O)C(C)C)NC(=O)[C@H](Cc2ccc(O)cc2)N(C)C(=O)[C@H](Cc2ccc(O)cc2)NC(=O)[C@H](CCCNC(=N)N)NC(=O)[C@H](CCCNC(=N)N)NC(=O)[C@H]([C@@H](C)CC)NC1=O [compound 297] | 1 to 100 nM | 
6 | CC[C@H](C)[C@@H]1NC(=O)[C@H](Cc2ccc(O)cc2)NC(=O)[C@H](Cc2ccc(O)cc2)NC(=O)[C@H](CC(N)=O)NC(=O)[C@H](Cc2c[nH]c3ccccc23)NC(=O)[C@H](C(C)C)NC(=O)[C@H](Cc2ccccc2)N(C)C(=O)[C@H](C(C)C)NC(=O)[C@H](C)NC(=O)CSC[C@@H](C(=O)NCC(=O)NCC(=O)NCC(=O)N[C@@H](Cc2ccccc2)C(=O)NCC(=O)N[C@@H](CCCCN=[N+]=[N-])C(N)=O)NC(=O)[C@H](Cc2ccc(O)cc2)N(C)C(=O)[C@H](Cc2ccc(O)cc2)NC(=O)[C@H](CCCNC(=N)N)NC(=O)[C@H](CCCNC(=N)N)NC(=O)[C@H]([C@@H](C)CC)NC1=O [compound 298] | 1 to 100 nM | 

Continued, in another order:

Row | Kd (read-out: SPR) | SMILES | Kd (SPR)
7 | 1 to 100 nM | CC[C@H](C)[C@@H]1NC(=O)[C@H](Cc2ccc(O)cc2)NC(=O)[C@H](Cc2ccc(O)cc2)NC(=O)[C@H](CC(N)=O)NC(=O)[C@H](Cc2c[nH]c3ccccc23)N(C)C(=O)[C@H](C(C)C)NC(=O)[C@H](Cc2ccccc2)N(C)C(=O)[C@H](C(C)C)NC(=O)[C@H](C)NC(=O)CSC[C@@H](C(=O)NCC(=O)N[C@H](C(=O)N[C@@H](CCCNC(N)=O)C(=O)N[C@@H](CCCCN=[N+]=[N-])C(N)=O)C(C)C)NC(=O)[C@H](Cc2ccc(O)cc2)N(C)C(=O)[C@H](Cc2ccc(O)cc2)NC(=O)[C@H](CCCNC(=N)N)NC(=O)[C@H](CCCCN)NC(=O)[C@H]([C@@H](C)CC)NC1=O [compound 299] | 
8 | 1 to 100 nM | CC[C@H](C)[C@@H]1NC(=O)[C@H](Cc2ccc(O)cc2)NC(=O)[C@H](Cc2ccc(O)cc2)NC(=O)[C@H](CC(N)=O)NC(=O)[C@H](Cc2c[nH]c3ccccc23)N(C)C(=O)[C@H](C(C)C)NC(=O)[C@H](Cc2ccccc2)N(C)C(=O)[C@H](C(C)C)NC(=O)[C@H](C)NC(=O)CSC[C@@H](C(=O)NCC(=O)N[C@@H](CCC(=O)O)C(=O)N[C@H](C(=O)N[C@@H](CCCNC(N)=O)C(=O)N[C@@H](CCCCN=[N+]=[N-])C(N)=O)C(C)C)NC(=O)[C@H](Cc2ccc(O)cc2)N(C)C(=O)[C@H](Cc2ccc(O)cc2)NC(=O)[C@H](CCCNC(=N)N)NC(=O)[C@H](CCCCN)NC(=O)[C@H]([C@@H](C)CC)NC1=O [compound 300] | 
9 | 1 to 100 nM | CC[C@H](C)[C@@H]1NC(=O)[C@H](Cc2ccc(O)cc2)NC(=O)[C@H](Cc2ccc(O)cc2)NC(=O)[C@H](CC(N)=O)NC(=O)[C@H](Cc2c[nH]c3ccccc23)N(C)C(=O)[C@H](C(C)C)NC(=O)[C@H](Cc2ccccc2)N(C)C(=O)[C@H](C(C)C)NC(=O)[C@H](C)NC(=O)CSC[C@@H](C(=O)NCC(=O)NCC(=O)NCC(=O)N[C@@H](Cc2ccccc2)C(=O)NCC(=O)N[C@@H](CCCCN=[N+]=[N-])C(N)=O)NC(=O)[C@H](Cc2ccc(O)cc2)N(C)C(=O)[C@H](Cc2ccc(O)cc2)NC(=O)[C@H](CCCNC(=N)N)NC(=O)[C@H](CCCCN)NC(=O)[C@H]([C@@H](C)CC)NC1=O [compound 301] | 
10 | 1 to 100 nM | CC[C@H](C)[C@@H]1NC(=O)[C@H](Cc2ccc(OCC(=O)O)cc2)NC(=O)[C@H](Cc2ccc(O)cc2)NC(=O)[C@H](CC(N)=O)NC(=O)[C@H](Cc2cn(CC(=O)O)c3ccccc23)NC(=O)[C@H](C(C)C)NC(=O)[C@H](Cc2cccc(Cl)c2)N(C)C(=O)[C@H](C(C)C)NC(=O)[C@H](C)NC(=O)CSC[C@@H](C(=O)NCC(=O)N[C@H](CO)C(=O)N[C@H](CO)C(=O)N[C@H](CO)C(=O)N[C@H](CO)C(=O)N[C@H](CO)C(=O)N[C@H](CO)C(=O)N[C@H](CO)C(=O)N[C@H](CO)C(=O)N[C@H](CO)C(=O)N[C@H](CO)C(=O)N[C@@H](CCCCNC(C)=O)C(N)=O)NC(=O)[C@H](Cc2ccc(O)cc2)N(C)C(=O)[C@H](Cc2ccccc2)NC(=O)[C@H](CCCNC(=N)N)NC(=O)[C@H](CCCNC(=N)N)NC(=O)[C@H]([C@@H](C)CC)NC1=O [compound 302] | 
11 | 1 to 100 nM | CC[C@H](C)[C@@H]1NC(=O)[C@H](Cc2ccc(OCC(=O)O)cc2)NC(=O)[C@H](Cc2ccc(N)nc2)NC(=O)[C@H](CC(N)=O)NC(=O)[C@H](Cc2cn(CC(=O)O)c3ccccc23)NC(=O)[C@H](C(C)C)NC(=O)[C@H](Cc2cccc(Cl)c2)N(C)C(=O)[C@H](C(C)C)NC(=O)[C@H](C)NC(=O)CSC[C@@H](C(=O)NCC(=O)N[C@@H](CCCCN=[N+]=[N-])C(N)=O)NC(=O)[C@H](Cc2ccc(O)cc2)N(C)C(=O)[C@H](Cc2ccncc2)NC(=O)[C@H](CCCNC(=N)N)NC(=O)[C@H](CCCNC(=N)N)NC(=O)[C@H]([C@@H](C)CC)NC1=O [compound 303] | 
12 | 1 to 100 nM | CC[C@H](C)[C@@H]1NC(=O)[C@H](Cc2ccc(OCC(=O)O)cc2)NC(=O)[C@H](Cc2ccc(N)nc2)NC(=O)[C@H](CC(N)=O)NC(=O)[C@H](Cc2cn(CC(=O)O)c3ccccc23)NC(=O)[C@H](C(C)C)NC(=O)[C@H](Cc2cccc(Cl)c2)N(C)C(=O)[C@H](C(C)C)NC(=O)[C@H](C)NC(=O)CSC[C@@H](C(=O)NCC(=O)N[C@@H](CCCCN=[N+]=[N-])C(N)=O)NC(=O)[C@H](Cc2ccc(O)cc2)N(C)C(=O)[C@H](Cc2ccncc2)NC(=O)[C@H](CCCNC(=N)N)NC(=O)[C@H](CCC(=O)NCCOCCOCCOCCOCCOCCOCCOCCOC)NC(=O)[C@H]([C@@H](C)CC)NC1=O [compound 304] | 
13 | 1 to 100 nM | CC[C@H](C)[C@@H]1NC(=O)[C@H](Cc2ccc(OCC(=O)O)cc2)NC(=O)[C@H](Cc2ccc(N)nc2)NC(=O)[C@H](CC(N)=O)NC(=O)[C@H](Cc2cn(CC(=O)O)c3ccccc23)NC(=O)[C@H](C(C)C)NC(=O)[C@H](Cc2cccc(Cl)c2)N(C)C(=O)[C@H](C(C)C)NC(=O)[C@H](C)NC(=O)CSC[C@@H](C(=O)NCC(=O)N[C@@H](CCCCN=[N+]=[N-])C(N)=O)NC(=O)[C@H](Cc2ccc(O)cc2)N(C)C(=O)[C@H](Cc2cccc(C(=O)O)c2)NC(=O)[C@H](CCCNC(=N)N)NC(=O)[C@H](CCC(=O)NCCOCCOCCOCCOCCOCCOCCOCCOC)NC(=O)[C@H]([C@@H](C)CC)NC1=O [compound 305] | 
